In article PMC5681660, “Reduced hepatitis B and D viral entry using clinically applied drugs as novel inhibitors of the bile acid transporter NTCP” (Scientific Reports, 2017):

Tests used:
[1] = biological target: T1, human NTCP (Homo sapiens, UniProt Q14973); assay: Screening taurocholate uptake assay (96-well, [14C]taurocholate, 10 µM drug); details: for remaining activity at 10 µM: 10 min, read-out: %NTCP activity
T1 sequence (Q14973 1-349): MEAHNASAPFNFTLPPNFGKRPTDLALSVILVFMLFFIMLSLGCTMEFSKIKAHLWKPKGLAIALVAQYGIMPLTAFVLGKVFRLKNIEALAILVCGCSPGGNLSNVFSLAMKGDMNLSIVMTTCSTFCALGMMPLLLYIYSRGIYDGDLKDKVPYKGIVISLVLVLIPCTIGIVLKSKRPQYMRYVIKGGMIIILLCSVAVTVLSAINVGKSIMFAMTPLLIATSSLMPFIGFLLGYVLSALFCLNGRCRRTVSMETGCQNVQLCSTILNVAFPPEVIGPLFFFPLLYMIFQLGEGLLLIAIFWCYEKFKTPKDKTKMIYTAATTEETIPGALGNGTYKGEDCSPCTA

[2] = biological target: T1, human NTCP; assay: Screening fluorescent competitive Myrcludex B-FITC binding assay (96-well, 10 µM drug); details: for remaining activity at 10 µM: 0.5 h
[3] = screening Myrcludex B-FITC binding, 10 µM drug
[4] = screening taurocholate uptake, 10 µM drug, Prestwick library
[5] = screening Myrcludex B-FITC binding, 10 µM drug, Prestwick library
[6] = read-out: %NTCP binding, screening Myrcludex B-FITC binding, 10 µM drug, Prestwick library

SMILES | remaining activity at 10 µM [1] | remaining activity at 10 µM ([2]; read-out: %NTCP binding) | B-score binding assay [2, 3] | other results
NCCc1c[nH]cn1 [Histamine dihydrochloride] | 116% | 50.6% | -0.808 | 
OCCOCCN1CCN(C2=Nc3ccccc3Sc3ccccc32)CC1 [Quetiapine hemifumarate] | 50.2% | 70.7% | -0.15 | 
O=P1(N(CCCl)CCCl)NCCCO1 (stereo not drawn) [Cyclophosphamide] | 70.3% | 105% |  | 
Nc1nc(=O)n([C@@H]2CS[C@H](CO)O2)cc1F [(-)-Emtricitabine] | 145% | 78.2% |  | 
NCCCC(O)(P(=O)(O)O)P(=O)(O)O [Alendronate sodium] | 111% | 69.5% |  | 
O=C(O)c1cccnc1 [Niacin] | 66.4% | 102% |  | 
CC(C)c1cccc(C(C)C)c1O [Propofol] | 29.6% | 90.8% |  | 
CN(C)CCC=C1c2ccccc2C=Cc2ccccc21 [Cyclobenzaprine hydrochloride] | 31.1% | 75.9% |  | 
C#CCN[C@@H]1CCc2ccccc21 [Rasagiline] | 102% | 57% |  | 
CCCN[C@H]1CCc2nc(N)sc2C1 [Pramipexole dihydrochloride] | 36.2% | 110% |  | 
C[C@]12CC[C@H](O)C[C@@H]1CC[C@@H]1[C@@H]2CC[C@]2(C)C(=O)CC[C@@H]12 [Epiandrosterone] | 47.9% | 71.2% |  | 
C[C@]12CC[C@@H](O)C[C@H]1CC[C@@H]1[C@@H]2CC[C@]2(C)C(=O)CC[C@@H]12 [3-alpha-Hydroxy-5-beta-androstan-17-one] |  |  |  | %NTCP activity [1]: 95.0096%; %NTCP binding [2]: 81.9346%
CCOC(=O)c1cncn1[C@H](C)c1ccccc1 [Etomidate] | 142% |  |  | 
CNCC(O)c1ccc(O)c(O)c1 (stereo not drawn) [Racepinephrine HCl] | 57.1% | 104% | 1.418 | 
Cc1c(Cl)cccc1Nc1ncccc1C(=O)O.NCCCC[C@H](N)C(=O)O [Clonixin Lysinate] |  |  |  | %NTCP activity [1]: 67.1033%; %NTCP binding [2]: 94.4472%
COC(=O)[C@H](c1ccccc1Cl)N1CCc2sccc2C1 [Clopidogrel] | 73.4% | 54.1% |  | 
C/C(=C(/CCO)SSCC1CCCO1)N(C=O)Cc1cnc(C)nc1N.Cl (stereo not drawn) [Fursultiamine Hydrochloride] |  |  |  | %NTCP activity [1]: 80.4856%; %NTCP binding [2]: 102.478%
N[C@@H]1C[C@H]1c1ccccc1 [Tranylcypromine hydrochloride] | 115% | 83.2% |  | 
CN1CCCN=C1/C=C/c1cccs1.O=C(O)C(O)C(O)C(=O)O [Pyrantel tartrate] |  |  | 0.037 | %NTCP activity [1, 4]: 138.554%; %NTCP binding [2, 5]: 69.5764%
CN(C/C=C/c1ccccc1)Cc1cccc2ccccc12 [Naftifine hydrochloride] | 113% | 105% |  | 
Nc1ccc(S(=O)(=O)Nc2ncccn2)cc1 [Sulfadiazine] | 151% | 112% |  | 
CCOc1ccccc1OCC1CNCCO1 (stereo not drawn) [Viloxazine hydrochloride] | 85.6% | 104% |  | 

SMILES | remaining activity at 10 µM [1] | remaining activity at 10 µM ([2]; read-out: %NTCP binding) | B-score binding assay [2, 3] | other results
C[C@]12CC[C@@H](O)C[C@@H]1CC[C@@H]1[C@@H]2CC[C@]2(C)C(=O)CC[C@@H]12 [Androsterone] | 85.6% | 82% |  | 
CNCCCC1c2ccccc2C=Cc2ccccc21 [Protriptyline hydrochloride] | 65.8% | 83.3% |  | 
CS(=O)(=O)Nc1ccc([N+](=O)[O-])cc1Oc1ccccc1 [Nimesulide] | 66.6% | 75.9% |  | 
Cl.OC(CCN1CCCCC1)(c1ccccc1)C1CCCCC1 (stereo not drawn) [Trihexyphenidyl-D,L Hydrochloride] |  |  | -0.957 | %NTCP activity [1, 4]: 121.392%; %NTCP binding [2, 5]: 74.7688%
Clc1ccc2nsnc2c1NC1=NCCN1 [Tizanidine HCl] | 87.2% | 78.1% |  | 
NCCc1ccc(O)c(O)c1 [Dopamine hydrochloride] | 87.2% | 132% |  | 
Brc1c(NC2=NCCN2)ccc2nccnc12.O=C(O)C(O)C(O)C(=O)O [Brimondine L-Tartrate] |  |  |  | %NTCP activity ([1]; screen, 10 µM drug, [14C]taurocholate uptake): 105.441%; %NTCP binding ([2]; screen, 10 µM drug, Myrcludex B-FITC binding): 73.3195%
NNCCc1ccccc1 [Phenelzine sulfate] | 104% | 62.4% |  | 
Cn1c(=O)c2[nH]cnc2n(C)c1=O [Aminophylline] |  |  | 0.068 | remaining activity at 10 µM [2, 6]: 108%
CCCC(=O)Nc1ncnc2c1ncn2[C@@H]1O[C@@H]2COP(=O)([O-])O[C@H]2[C@H]1OC(=O)CCC.[Na+] [Bucladesine sodium salt] |  |  | -0.083 | %NTCP binding [2, 5]: 108.681%
CC(=O)SCC(Cc1ccccc1)C(=O)NCC(=O)OCc1ccccc1 (stereo not drawn) [Racecadotril] |  |  | -0.55 | 
CNC[C@H](O)[C@@H](O)[C@H](O)[C@H](O)CO [Meglumine] |  |  | -2.195 | 
OCCN1CCN(CCCN2c3ccccc3C=Cc3ccccc32)CC1 [Opipramol dihydrochloride] |  |  | 1.804 | 
COc1ccc(C(=O)CC(=O)c2ccc(C(C)(C)C)cc2)cc1 [Avobenzone] |  |  | -1.454 | 
CC(C)(Oc1ccc(C2CC2(Cl)Cl)cc1)C(=O)O (stereo not drawn) [Ciprofibrate] |  |  | -0.332 | 
CC1(C)S[C@@H]2[C@H](NC(=O)[C@H](C(=O)O)c3ccsc3)C(=O)N2[C@H]1C(=O)O [Ticarcillin sodium] |  |  | -3.119 | 
COC1=C(OC)C(=O)C(CCCCCCCCCCO)=C(C)C1=O [Idebenone] |  |  | -0.743 | 
CN(Cc1cc(Br)cc(Br)c1N)C1CCCCC1 [Bromhexine hydrochloride] |  |  | -2.362 | 
C#Cc1cccc(Nc2ncnc3cc(OCCOC)c(OCCOC)cc23)c1 [Erlotinib] |  |  | 0.555 | 
C[C@H](CCC(=O)O)[C@H]1CC[C@H]2[C@@H]3[C@H](O)C[C@@H]4C[C@H](O)CC[C@]4(C)[C@H]3CC[C@]12C [Chenodiol] |  |  | -8.499 | 
OC(c1ccccc1)(c1ccccc1)C1CCNCC1 [Azacyclonol] |  |  | -0.253 | remaining activity at 10 µM [2, 6]: 92.3%
O=C(O)CCCC[C@@H]1SC[C@@H]2NC(=O)N[C@@H]21 [Biotin] |  |  | -3.098 | 

SMILES | remaining activity at 10 µM [1] | remaining activity at 10 µM ([2]; read-out: %NTCP binding) | B-score binding assay [2, 3] | other results
CC(C)(C)NCC(O)c1ccc(O)c(CO)c1 (stereo not drawn) [Salbutamol] |  |  | -2.567 | 
CCc1oc2ccccc2c1C(=O)c1cc(Br)c(O)c(Br)c1 [Benzbromarone] |  |  | 0.673 | 
CC(C)N1CCN(c2ccc(OCC3COC(Cn4cncn4)(c4ccc(Cl)cc4Cl)O3)cc2)CC1 (stereo not drawn) [Terconazole] |  |  | -0.315 | 
O=C1c2cccc(O)c2C(=O)c2c(O)cccc21 [1,8-Dihydroxyanthraquinone] |  |  |  | %NTCP binding [2, 5]: 99.5447%; B-score binding assay ([2]; screening Myrcludex B-FITC binding, 10 µM drug, B-score): 2.635
O=C(CCCN1CCC2(CC1)C(=O)NCN2c1ccccc1)c1ccc(F)cc1 [Spiperone] |  |  | 0.875 | 
OCCN1CCN(CCCN2c3ccccc3Sc3ccc(Cl)cc32)CC1 [Perphenazine] |  |  | -5.362 | 
Cc1cc(-n2c(=O)[nH]c(=O)n(C)c2=O)ccc1Oc1ccc(SC(F)(F)F)cc1 [Toltrazuril] |  |  | -4.683 | 
CCCOc1ccccc1-c1nc2nn[nH]c2c(=O)[nH]1 [Zaprinast] |  |  | -0.971 | 
CCOC(=O)N1CCC(=C2c3ccc(Cl)cc3CCc3cccnc32)CC1 [Loratadine] |  |  | -2.071 | 
CN1CCN2c3ncccc3Cc3ccccc3C2C1 (stereo not drawn) [Mirtazapine] |  |  | -0.35 | 
c1ccc(-c2ccc(C(c3ccccc3)n3ccnc3)cc2)cc1 (stereo not drawn) [Bifonazole] |  |  | -0.97 | 
Cl.Cl.c1ccc2c(c1)CCCc1cc(NCCN3CCOCC3)nnc1-2 |  |  | -3.003 | 
OC(CCN1CCCCC1)(c1ccccc1)C1CC2C=CC1C2 (stereo not drawn) [Biperiden hydrochloride] |  |  | -0.046 | 
NC[C@H]1O[C@H](O[C@H]2[C@H](O)[C@@H](O[C@H]3O[C@H](CO)[C@@H](O)[C@H](N)[C@H]3O)[C@H](N)C[C@@H]2N)[C@H](N)C[C@@H]1O [Tobramycin] |  |  | -0.14 | 
C=CC1=C(C(=O)O)N2C(=O)[C@@H](NC(=O)/C(=N\O)c3csc(N)n3)[C@H]2SC1 [Cefdinir] |  |  | 0.499 | 
COC(=O)Nc1nc2ccc(SC(C)C)cc2[nH]1 [Methiazole] |  |  | -0.889 | 
CCCC(C(=O)OCCN(CC)CC)(c1ccccc1)c1ccccc1 [Proadifen hydrochloride] |  |  | 1.307 | 
C[C@@H]1C[C@@H]([C@H](O)CC2CC(=O)NC(=O)C2)C(=O)[C@@H](C)C1 [Cycloheximide] |  |  | -0.859 | 
CC(=O)NCCCS(=O)(=O)O [Acamprosate calcium] |  |  | -3.028 | 
CC=CC(=O)N(CC)c1ccccc1C (mixture of isomers) [Crotamiton] |  |  | -2.125 | 

Counter-ions that a name gives are not always drawn. Like-named read-outs stand apart in the source and are kept apart here.
